Results reported in BindingDB's records for PubMed 1836757 (University of Heidelberg, 1991).

The chains behind the UniProt entries cited, without tags or fusion partners. Where a name states a change or a piece, a line headed by the entry shows the natural chain unless it says otherwise.
UniProt P08908, whole entry: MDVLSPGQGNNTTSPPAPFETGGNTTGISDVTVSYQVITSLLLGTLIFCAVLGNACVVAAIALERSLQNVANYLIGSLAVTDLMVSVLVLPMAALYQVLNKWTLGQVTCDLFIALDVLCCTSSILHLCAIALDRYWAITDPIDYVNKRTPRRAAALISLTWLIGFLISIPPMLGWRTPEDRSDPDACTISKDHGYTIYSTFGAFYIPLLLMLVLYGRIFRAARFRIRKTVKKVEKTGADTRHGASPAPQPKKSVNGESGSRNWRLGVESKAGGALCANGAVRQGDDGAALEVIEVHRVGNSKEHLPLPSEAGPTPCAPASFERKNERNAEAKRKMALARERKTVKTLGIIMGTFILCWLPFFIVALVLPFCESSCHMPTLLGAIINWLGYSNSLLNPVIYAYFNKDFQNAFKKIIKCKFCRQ
UniProt P28221: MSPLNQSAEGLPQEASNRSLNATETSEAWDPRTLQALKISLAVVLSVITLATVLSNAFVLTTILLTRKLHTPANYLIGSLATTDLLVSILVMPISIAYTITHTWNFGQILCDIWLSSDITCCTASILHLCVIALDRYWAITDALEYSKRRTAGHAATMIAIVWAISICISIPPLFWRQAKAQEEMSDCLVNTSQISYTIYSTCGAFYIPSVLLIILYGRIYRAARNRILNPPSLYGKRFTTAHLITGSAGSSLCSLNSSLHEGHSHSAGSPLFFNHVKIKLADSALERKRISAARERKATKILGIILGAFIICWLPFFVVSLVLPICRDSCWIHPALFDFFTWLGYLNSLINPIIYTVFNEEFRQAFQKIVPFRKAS
UniProt P28222, whole entry: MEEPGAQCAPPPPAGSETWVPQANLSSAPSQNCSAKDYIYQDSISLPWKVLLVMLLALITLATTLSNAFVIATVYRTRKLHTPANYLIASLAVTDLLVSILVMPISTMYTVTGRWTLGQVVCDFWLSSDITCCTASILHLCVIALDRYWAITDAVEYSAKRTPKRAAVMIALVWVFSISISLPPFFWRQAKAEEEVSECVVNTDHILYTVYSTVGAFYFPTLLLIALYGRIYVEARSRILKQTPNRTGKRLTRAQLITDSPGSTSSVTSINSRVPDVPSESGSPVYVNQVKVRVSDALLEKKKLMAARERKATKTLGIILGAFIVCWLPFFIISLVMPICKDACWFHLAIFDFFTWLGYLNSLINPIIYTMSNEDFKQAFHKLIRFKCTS
UniProt P28335: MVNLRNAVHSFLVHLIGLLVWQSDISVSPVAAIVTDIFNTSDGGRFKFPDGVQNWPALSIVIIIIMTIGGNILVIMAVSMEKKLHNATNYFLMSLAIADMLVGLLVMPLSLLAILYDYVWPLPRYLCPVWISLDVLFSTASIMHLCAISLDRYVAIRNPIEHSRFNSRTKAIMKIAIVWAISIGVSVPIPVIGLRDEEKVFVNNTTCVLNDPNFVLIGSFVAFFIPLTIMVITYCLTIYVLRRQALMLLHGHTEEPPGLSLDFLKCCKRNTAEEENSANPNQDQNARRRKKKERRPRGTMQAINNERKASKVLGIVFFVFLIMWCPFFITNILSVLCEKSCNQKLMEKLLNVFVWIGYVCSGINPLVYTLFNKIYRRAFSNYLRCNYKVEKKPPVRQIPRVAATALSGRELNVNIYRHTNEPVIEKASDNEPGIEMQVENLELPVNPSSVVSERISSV

Biological target: 5-hydroxytryptamine receptor 1A/1B/1D/2C (Homo sapiens, UniProt P08908+P28221+P28222+P28335)

- Ki: 4.5 µM
Structure (SMILES): COC(=O)[C@@H]1[C@H]2C[C@H]3c4[nH]c5ccccc5c4CCN3C[C@@H]2CC[C@@H]1O [yohimbic acid methyl ester]
